Assay results published in patent publication US20210284621A1 (priority 2018, published 2021).

By UniProt entry, the sequences of proteins in these tests, tags left out.
UniProt P21554, whole entry: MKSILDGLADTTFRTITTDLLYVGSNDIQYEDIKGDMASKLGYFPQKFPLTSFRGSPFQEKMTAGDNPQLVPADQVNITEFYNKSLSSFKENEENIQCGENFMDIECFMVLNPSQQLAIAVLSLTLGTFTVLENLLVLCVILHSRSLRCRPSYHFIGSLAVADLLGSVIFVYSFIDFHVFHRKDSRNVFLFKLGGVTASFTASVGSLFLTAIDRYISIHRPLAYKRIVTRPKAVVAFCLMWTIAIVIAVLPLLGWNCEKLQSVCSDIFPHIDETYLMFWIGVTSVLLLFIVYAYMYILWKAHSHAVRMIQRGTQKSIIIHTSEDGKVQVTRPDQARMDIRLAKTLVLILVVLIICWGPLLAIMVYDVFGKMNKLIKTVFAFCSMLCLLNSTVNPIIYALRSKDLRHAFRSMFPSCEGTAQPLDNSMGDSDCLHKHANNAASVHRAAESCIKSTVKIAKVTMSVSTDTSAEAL
UniProt P34972, whole entry: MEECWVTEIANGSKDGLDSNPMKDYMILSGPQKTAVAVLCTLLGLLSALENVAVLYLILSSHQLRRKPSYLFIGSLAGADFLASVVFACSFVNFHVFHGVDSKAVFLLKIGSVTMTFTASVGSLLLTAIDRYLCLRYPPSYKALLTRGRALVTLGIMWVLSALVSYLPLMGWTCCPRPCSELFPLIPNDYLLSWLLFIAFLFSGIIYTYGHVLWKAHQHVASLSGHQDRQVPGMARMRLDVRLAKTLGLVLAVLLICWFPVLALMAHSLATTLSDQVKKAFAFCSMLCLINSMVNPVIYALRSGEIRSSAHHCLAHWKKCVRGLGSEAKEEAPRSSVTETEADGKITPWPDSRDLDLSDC

How the values were obtained:
[1] = biological target: T1, CB1 receptor (Homo sapiens, UniProt P21554); assay: cell-based; parameters: host or cells: PathHunter cell lines
Procedure: (§1) Compounds of the invention were assayed in the PathHunter® β-Arrestin assay to determine agonist activity on the CB1 and CB2 receptors, the results of which are provided in Table 6.
(§2) The PathHunter® β-Arrestin assay monitors the activation of a GPCR in a homogenous, non-imaging assay format using a technology developed by DiscoverX called Enzyme Fragment Complementation (EFC) with β-galactosidase (3-Gal) as the functional reporter. […] EA is fused to β-Arrestin and PK is fused to the GPCR of interest.
(§3) PathHunter cell lines were expanded from freezer stocks according to standard procedures. Cells were seeded in a total volume of 20 μL into white walled, 384-well microplates and incubated at 37° C. for the appropriate time prior to testing. For agonist activity determination, cells were incubated with sample to induce response. Intermediate dilution of sample stocks was performed to generate 5× sample in assay buffer. […] Microplates were read following signal generation with a PerkinElmer Envision™ instrument for chemiluminescent signal detection. Compound activity was analyzed using CBIS data analysis suite (ChemInnovation, CA). For agonist assays, percentage activity was calculated using the following formula: % Activity=100%×(mean RLU of test sample− mean RLU of vehicle control)/(mean MAX control ligand− mean RLU of vehicle control).

[2] = biological target: T1, CB1 receptor; assay: CB1 competitive radioligand binding assay ([3H] SR141716A); parameters: expressed in transfected cells; host or cells: Chem-1 cells
Procedure: (§4) The binding affinity (% inhibition, Ki) of compounds of the invention for the CB1 and CB2 receptors was determined by a competitive radioligand binding assay, the results of which are provided in Table 2 and Table 3. Exemplary methods for the determination of binding affinity for a cannabinoid receptor by competitive radioligand binding can be found in the literature, for example, in Reggio P. H., et al. The bioactive conformation of aminoalkylindoles at the cannabinoid CB1 and CB2 receptors: insights gained from (E)- and (Z)-naphthylidene indenes. J Med Chem. 41(26): 5177-5187 (1998); and Munro S., et al. Molecular characterization of a peripheral receptor for cannabinoids. Nature 365:61-65 (1993).
CB1 Radioligand Binding Assay: A compound of the invention (0.5 μM in 1% DMSO) was incubated with Chem-1 cells expressing human recombinant CB1 receptor in buffer (50 mM HEPES, pH 7.4, 5 mM MgCl2, 1 mM CaCl2, 0.2% BSA) for 90 minutes at 37° C. in the presence of 2.0 nM [H^3] SR141716A (CB1 radioligand). % Inhibition was determined as a function of radioligand binding to the CB1 receptor.

[3] = biological target: T2, CB2 receptor (Homo sapiens, UniProt P34972); assay: cell-based; parameters: host or cells: cAMP Hunter cell lines
Procedure: as §1, §2, §3

[4] = biological target: T2, CB2 receptor; assay: CB2 competitive radioligand binding assay ([3H] WIN-55,212-2); parameters: expressed in transfected cells; host or cells: CHO-K1 cells
Procedure: as §4
CB2 Radioligand Binding Assay: A compound of the invention (0.05 μM in 1% DMSO) was incubated with CHO-K1 cells expressing human recombinant CB2 receptor in buffer (20 mM HEPES, pH 7.0, 0.5% BSA) for 90 minutes at 37° C. in the presence of 2.4 nM [H^3] WIN-55,212-2 (CB2 radioligand). % Inhibition was determined as a function of radioligand binding to the […].

CCCCCCC(C)(C)c1ccc2c(c1)OC(C)(C)[C@@H]1CC=C(C(=O)O)C[C@@H]21 [Compound 21, (6aR,10aR)-6,6-dimethyl-3-(2-methyloctan-2-yl)-6a,7,10,10a-tetrahydro-6H-benzo[c]chromene-9-carboxylic acid]
EC50 [1]: 2670 nM
Ki [2]: > 5000 nM
EC50 [3]: > 1000 nM
Ki [4]: > 3000 nM
